According to US20180066029A1 (UNIVERSIT T STUTTGART, published 2018):

Target: recombinant histone H4 (no post-translational modifications)
Experiment: far-western blot

B1: artificial protein PM (PWWP domain of Dnmt3a, naturally occurring linker of 21 amino acids, chromodomain of MPP8, N-terminal GST tag) (designed binder)
chain: MSPILGYWKIKGLVQPTRLLLEYLEEKYEEHLYERDEGDKWRNKKFELGLEFPNLPYYIDGDVKLTQSMAIIRYIADKHNMLGGCPKERAEISMLEGAVLDIRYGVSRIAYSKDFETLKVDFLSKLPEMLKMFEDRLCHKTYLNGDHVTHPDFMLYDALDVVLYMDPMCLDAFPKLVCFKKRIEAIPQIDKYLKSSKYIAWPLQGWQATFGGGDHPPKSDLEVLFQGPLGSPGILGSEYEDGRGFGIGELVWGKLRGFSWWPGRIVSWWMTGRSRAAEGTRWVMWFGDGKFSVVCVEKLMPLSSFCSAFHQATYNKQPMYRKAIYEVLQVASSRAGKLFPACHDSDESDSGKAVEVQNKQMIEWALGGFQPSGPKGLEPPLERPHRDVFEVEKILDMKTEGGKVLYKVRWKGYTSDDDTWEPEIHLEDCKEVLLEFRKKIAEPGSTRAAAS
notes: Each artificial protein carries an N-terminal GST tag (pGEX-6P-2)
Does B1 bind?
Result: no binding (tested: 10 nM)

B2: variant of PM with pocket mutation D329A in the PWWP domain of Dnmt3a (designed binder)
chain: MSPILGYWKIKGLVQPTRLLLEYLEEKYEEHLYERDEGDKWRNKKFELGLEFPNLPYYIDGDVKLTQSMAIIRYIADKHNMLGGCPKERAEISMLEGAVLDIRYGVSRIAYSKDFETLKVDFLSKLPEMLKMFEDRLCHKTYLNGDHVTHPDFMLYDALDVVLYMDPMCLDAFPKLVCFKKRIEAIPQIDKYLKSSKYIAWPLQGWQATFGGGDHPPKSDLEVLFQGPLGSPGILGSEYEDGRGFGIGELVWGKLRGFSWWPGRIVSWWMTGRSRAAEGTRWVMWFGAGKFSVVCVEKLMPLSSFCSAFHQATYNKQPMYRKAIYEVLQVASSRAGKLFPACHDSDESDSGKAVEVQNKQMIEWALGGFQPSGPKGLEPPLERPHRDVFEVEKILDMKTEGGKVLYKVRWKGYTSDDDTWEPEIHLEDCKEVLLEFRKKIAEPGSTRAAAS
notes: N-terminal GST tag
Does B2 bind?
Result: no binding (tested: 10 nM)

B3: variant of PM with pocket mutation F59A in the chromodomain of MPP8 (designed binder)
chain: MSPILGYWKIKGLVQPTRLLLEYLEEKYEEHLYERDEGDKWRNKKFELGLEFPNLPYYIDGDVKLTQSMAIIRYIADKHNMLGGCPKERAEISMLEGAVLDIRYGVSRIAYSKDFETLKVDFLSKLPEMLKMFEDRLCHKTYLNGDHVTHPDFMLYDALDVVLYMDPMCLDAFPKLVCFKKRIEAIPQIDKYLKSSKYIAWPLQGWQATFGGGDHPPKSDLEVLFQGPLGSPGILGSEYEDGRGFGIGELVWGKLRGFSWWPGRIVSWWMTGRSRAAEGTRWVMWFGDGKFSVVCVEKLMPLSSFCSAFHQATYNKQPMYRKAIYEVLQVASSRAGKLFPACHDSDESDSGKAVEVQNKQMIEWALGGFQPSGPKGLEPPLERPHRDVAEVEKILDMKTEGGKVLYKVRWKGYTSDDDTWEPEIHLEDCKEVLLEFRKKIAEPGSTRAAAS
notes: N-terminal GST tag
Does B3 bind?
Result: no binding (tested: 10 nM)

B4: artificial protein PT (PWWP domain of Dnmt3a, naturally occurring linker of 14 amino acids, PHD domain of TAF3, N-terminal GST tag) (designed binder)
chain: MSPILGYWKIKGLVQPTRLLLEYLEEKYEEHLYERDEGDKWRNKKFELGLEFPNLPYYIDGDVKLTQSMAIIRYIADKHNMLGGCPKERAEISMLEGAVLDIRYGVSRIAYSKDFETLKVDFLSKLPEMLKMFEDRLCHKTYLNGDHVTHPDFMLYDALDVVLYMDPMCLDAFPKLVCFKKRIEAIPQIDKYLKSSKYIAWPLQGWQATFGGGDHPPKSDLEVLFQGPLGSEYEDGRGFGIGELVWGKLRGFSWWPGRIVSWWMTGRSRAAEGTRWVMWFGDGKFSVVCVEKLMPLSSFCSAFHQATYNKQPMYRKAIYEVLQVASSRAGKLFPACHDSDESDSGKAVEVQNKQMIEWALGGFQPSGPKGLEPPVIRDEWGNQIWICPGCNKPDDGSPMIGCDDCDDWYHWPCVGIMTAPPEEMQWFCPKCANKKKDKKHKKRKHRAH
notes: N-terminal GST tag
Does B4 bind?
Result: no binding

B5: artificial protein PLP (PWWP domain of Dnmt3a, artificial linker of 27 amino acids, PWWP domain of Dnmt3a, N-terminal GST tag) (designed binder)
chain: MSPILGYWKIKGLVQPTRLLLEYLEEKYEEHLYERDEGDKWRNKKFELGLEFPNLPYYIDGDVKLTQSMAIIRYIADKHNMLGGCPKERAEISMLEGAVLDIRYGVSRIAYSKDFETLKVDFLSKLPEMLKMFEDRLCHKTYLNGDHVTHPDFMLYDALDVVLYMDPMCLDAFPKLVCFKKRIEAIPQIDKYLKSSKYIAWPLQGWQATFGGGDHPPKSDLEVLFQGPLGSPGILGSEYEDGRGFGIGELVWGKLRGFSWWPGRIVSWWMTGRSRAAEGTRWVMWFGDGKFSVVCVEKLMPLSSFCSAFHQATYNKQPMYRKAIYEVLQVASSRAGKLFPACHDSDESDSGKAVEVQNKQMIEWALGGFQPSGPKGLEPPLERPHRDSSGNSNANSRGPSFSSGLVPLSLRGSHGSEYEDGRGFGIGELVWGKLRGFSWWPGRIVSWWMTGRSRAAEGTRWVMWFGDGKFSVVCVEKLMPLSSFCSAFHQATYNKQPMYRKAIYEVLQVASSRAGKLFPACHDSDESDSGKAVEVQNKQMIEWALGGFQPSGPKGLEPPLERPHRD
notes: N-terminal GST tag
Does B5 bind?
Result: no binding
